# System: TMC-23 mouse clonal chondrogenic cell line
# Experiment: Chondrogenic activity: alkaline phosphatase (ALP) activity in TMC-23 cells
# Type: cell-based
# Details: compared to vehicle control
# Experimental: Compounds 59-008, 59-0102 and 50-0197 were assayed for effects on the differentiation of cartilage cells, as compared to the action of recombinant human BMP-2. Briefly, a mouse clonal chondrogenic cell line, TMC-23, was isolated and cloned from costal cartilage of transgenic mice containing the BMP-2 gene control region driving SV-40 large T-antigen, generated as described in Ghosh-Choudhury et al Endocrinology 137:331-39, 1996.
# For measurement of alkaline phosphatase (ALP) activity, the technique of LF Bonewald et al. J Biol Chem (1992) 267:8943-49, was employed. Briefly, TMC-23 cells were plated in 96 well microtiter plates in DMEM containing 10% FCS at 4×10^3 cells/well. Two days after plating, the cells were confluent and the medium was replaced with fresh medium containing 10% FCS and different concentrations of compounds or recombinant BMP-2. After an additional 2 or 5 days incubation, the plates were washed twice with PBS, and then lysing solution (0.05% Triton X-100) was added (100 μl/well). The cells were lysed by three freeze-thaw cycles of −70° C. (30 min), followed by 37° C. (30 min with shaking). Twenty microliters of cell lysates were assayed with 80 μl of 5 mM p-nitrophenol phosphate in 1.5 M 2-amino-2-methyl-propanol buffer, pH 10.3 (Sigma ALP kit, Sigma Chemical Co., St. Louis, Mo.) for 10 min at 37° C. The reaction was stopped by the addition of 100 μl of 0.5 M NaOH. The spectrophotometric absorbance at 405 nm was compared to that of p-nitrophenol standards to estimate ALP activity in the samples. The protein content of the cell lysates was determined by the Bio-Rad protein assay kit (Bio-Rad, Hercules, Calif.). Specific activity was calculated using these two parameters.
substance,measurement,setting,value
"Recombinant BMP2: recombinant human bone morphogenetic protein 2, comparator in the ALP assay",induction of ALP levels,10 ng/ml,~1.5 fold
same,induction of ALP levels,50 ng/ml,~4 fold
same,induction of ALP levels,100 ng/ml,approximately 10 fold

# From US6342514B1, “Compositions and methods for treating bone deficit conditions” (ZymoGenetics, Inc., priority 1996, dated 2002)
